Measurements published in patent US20190211020A1 (Agency for Science, Technology and Research, priority 2012, published 2019).
Like-named read-outs stand apart in the source and are kept apart here.

Tests used:
[1] = system: MV-4-11, P116.c139 and D1.1 cell lines; test: Cell cytotoxicity assay, the three test cell lines taken together; format: cell-based
Protocol: Cancer cell lines, MV-4-11 (leukemia), P116.c139 (acute T cell leukemia) and D1.1 (acute T cell leukemia), were purchased from ATCC and cultured according to supplier's recommendations. K562 cells (myelogenous leukemia) over-expressing eIF4E, were also used for the cytotoxicity assay. For cells treated for 48 hours, 5000 cells were seeded in 70 μl of growth medium in black, flat-bottom 96-well plate. For cells treated for six days, 1000 cells were seeded in 70 μl of growth medium in black, flat-bottom 96-well plate. The compounds, Cercosporamide, Example 176 (ETC-7114), Example 175 (ETC-7117), Example 133 (ETC-7165) and Example 62 (ETC-7168), were treated with doses ranging from 0.003 μM to 50 μM. 50 μl of the diluted compounds was added to the cells and incubated at 37° C. in 5% CO2. After 48 hours or six days treatment, cell viability was determined by CellTiter-Glo Luminescent Cell Viability Assay (Promega, Madison, Wis.). 120 μl of the reagent was added to the cells and luminescence was measured using Tecan Safire Reader. Data was analysed with Graphpad Prism software and the figures represented indicate the half maximal inhibitory concentration (IC50). Error bars denote standard deviation (SD).

[2] = Pharmacokinetics assays (plasma and brain); format: in vivo

Compound	relative cytotoxicity amongst the four compounds [1]	Tmax ([2]; brain, read-out: Brain Tmax) [min]	Plasma/Brain Ratio ([2]; in vivo)	Tmax ([2]; plasma, read-out: Plasma Tmax) [min]
N#Cc1ccc(-c2cnc3ccc(-c4ccc(C(=O)N5CCOCC5)cc4)nn23)cc1 [Example 62, 4-(6-(4-(morpholine-4-carbonyl)phenyl)imidazo[1,2-b]pyridazin-3-yl)benzonitrile]	most cytotoxic			
N#Cc1ccc(-c2cnc3ccc(-c4ccc(C(=O)N5CCOCC5)cc4)nn23)cc1 [Entry 5]		30	0.12	30
